Calls of active or inactive are those of the source. The calls are words filed in the database; no cut-off is given here.
How the values were obtained:
661W [1] = test: Cytoprotective activity against 4HNE-induced mouse 661W cells assessed as reduction in ROS level at 0.5 uM preincubated for 2 hrs followed by 4-HNE addition and measured after 24 hrs in presence of SN-011 by CM-H2DCFDA staining based fluorescence analysis; type: functional, cell-based
661W [2] = test: Cytoprotective activity against 4HNE-induced mouse 661W cells assessed as reduction in ROS level at 1 uM preincubated for 2 hrs followed by 4-HNE addition and measured after 24 hrs in presence of SN-011 by CM-H2DCFDA staining based fluorescence analysis; type: functional, cell-based; conditions: time 26.0 hrs
[3] = Cytotoxicity against human THP1-Lucia ISG cells assessed as reduction in cell viability at upto 50 uM by MTS method; type: toxicity, cell-based

| SMILES | Activity (661W [1]) | Activity (661W [2]) | Activity [3] |
| --- | --- | --- | --- |
| O=C(O)c1cc(F)cc(NCc2ccc(-c3ccc(F)cc3)cc2)c1 | Active | Active |  |
| O=C(O)c1cc(NCc2ccc(-c3ccc(F)cc3)cc2)ccc1O |  |  | Non-Toxic |

Source: ChEMBL document CHEMBL5614399, “Design and Assessment of First-Generation Heterobifunctional PPARα/STING Modulators” (ACS Med Chem Lett, 2024)
